Results reported in ChEMBL document CHEMBL1149485, “Structure-activity relationships of uridine 5'-diphosphate analogues at the human P2Y6 receptor” (J Med Chem, 2006).

Sequences of proteins named here, by UniProt entry; tags and fusion partners are left off. A change or cut given only in a name is not applied to a line headed by its entry.
UniProt Q15077: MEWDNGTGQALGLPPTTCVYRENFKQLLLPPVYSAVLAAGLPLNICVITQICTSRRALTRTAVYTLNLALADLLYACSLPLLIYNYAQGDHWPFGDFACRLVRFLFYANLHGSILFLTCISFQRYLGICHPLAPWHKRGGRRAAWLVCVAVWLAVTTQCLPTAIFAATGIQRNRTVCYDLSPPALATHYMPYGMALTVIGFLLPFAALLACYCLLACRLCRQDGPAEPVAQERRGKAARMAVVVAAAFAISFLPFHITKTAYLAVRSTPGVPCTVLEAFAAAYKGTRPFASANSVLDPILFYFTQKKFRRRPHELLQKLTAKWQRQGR
UniProt P51582: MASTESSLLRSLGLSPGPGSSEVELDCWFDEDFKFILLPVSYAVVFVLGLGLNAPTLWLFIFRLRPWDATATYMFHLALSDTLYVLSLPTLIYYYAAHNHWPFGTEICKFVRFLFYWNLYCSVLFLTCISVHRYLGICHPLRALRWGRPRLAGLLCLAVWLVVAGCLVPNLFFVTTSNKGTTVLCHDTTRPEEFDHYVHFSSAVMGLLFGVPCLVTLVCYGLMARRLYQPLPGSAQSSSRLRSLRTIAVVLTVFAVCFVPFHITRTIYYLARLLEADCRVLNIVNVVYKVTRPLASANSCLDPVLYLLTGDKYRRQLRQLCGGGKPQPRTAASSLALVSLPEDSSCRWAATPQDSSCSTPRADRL
UniProt P41231: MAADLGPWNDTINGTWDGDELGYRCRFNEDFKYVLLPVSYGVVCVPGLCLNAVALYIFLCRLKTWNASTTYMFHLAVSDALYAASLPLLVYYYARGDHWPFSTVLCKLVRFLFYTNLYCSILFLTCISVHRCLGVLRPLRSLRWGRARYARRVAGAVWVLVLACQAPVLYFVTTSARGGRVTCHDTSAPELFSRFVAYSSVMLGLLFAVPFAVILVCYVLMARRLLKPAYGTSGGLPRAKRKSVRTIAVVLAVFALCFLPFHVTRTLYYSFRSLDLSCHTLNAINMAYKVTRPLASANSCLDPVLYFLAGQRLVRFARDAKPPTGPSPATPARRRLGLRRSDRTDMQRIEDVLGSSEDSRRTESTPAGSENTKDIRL

What was measured:
Assay type in all cases: functional, cell-based
P2Y purinoceptor 6 = P2Y purinoceptor 6 (Homo sapiens, UniProt Q15077); assay: Agonist activity at human recombinant P2Y6 receptor expressed in 1321N1 cells assessed as PLC-mediated [3H]IP production relative to UDP
In short: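 Stable 1321N1 astrocytoma line expressing human P2Y6, grown to confluence and labelled 12 h in serum-free, inositol-free DMEM with 0.4 μCi myo-[3H]inositol. Agonists were added in Hepes pH 7.3 with LiCl for 20 min at 37 °C. The reaction was stopped with ice-cold 50 mM formic acid, neutralised with NH4OH, and [3H]inositol phosphates separated on Dowex AG 1-X8. EC50 came from four-parameter logistic fits; ratio to UDP EC50. Triplicates, ≥3 experiments.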

P2Y purinoceptor 4 = P2Y purinoceptor 4 (Homo sapiens, UniProt P51582); assay: Agonist activity at human recombinant P2Y4 receptor expressed in 1321N1 cells assessed as PLC-mediated [3H]IP production relative to UTP
P2Y purinoceptor 2 = P2Y purinoceptor 2 (Homo sapiens, UniProt P41231); assay: Agonist activity at human recombinant P2Y2 receptor expressed in 1321N1 cells assessed as PLC-mediated [3H]IP production relative to UTP

For `O=c1ccn([C@H]2C[C@H](O)[C@@H](COP(=O)(O)OP(=O)(O)O)O2)c(=O)[nH]1`, the Ratio EC50 (P2Y purinoceptor 6) was 130, the Ratio EC50 (P2Y purinoceptor 4) was 26 and the Ratio EC50 (P2Y purinoceptor 2) was 22.
